High-throughput results (PubChem BioAssay)
Nrf2 ARE act: activates Nrf2 signaling; AREc32 ARE-luciferase reporter (MCF7-derived line), luminescence, 24 h; Potency, µM (titrated, usually from 46.1 µM), actives largely listed as activators; actives 0.31% (n = 410,000); further: nearly all actives have a fitted effect of over 65% in size
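Quantitative high-throughput format: AREc32 reporter cells, 1000 per well, received compound by pin transfer and were incubated 24 hr at 37 deg C, 5% CO2, before Steady-Glo luminescence detection.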
Nrf2 inh: blocks Nrf2 signaling; A549 ARE-Fluc reporter, luciferase luminescence, 18-24 h; Potency, µM (titrated, usually from 46 µM), most hits filed as inhibitors; actives 2.1% (n = 360,000); further: nearly all actives have a fitted effect of over 60% in size
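Nrf2 function is reported as luminescence of an ARE-controlled luciferase in A549 cells. Compounds were tested at several concentrations, and a CellTiter-Fluor read on the same wells flagged cytotoxicity.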
miR-21 FLuc: miR-21 reporter, rising signal | HeLa miR-21 FLuc reporter, luciferase, 48 h | Potency, µM (highest dose often 38.3 µM) | 340,000 tested, under 10 active | AID 2288; active = well fitted rising curve with a large enough effect; inconclusive = small, poorly fitted or top-dose-only effect; inactive = no such curve, though single readings can be large or run the other way;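 further: miR-21 action dims this reporter so a rising signal means less miR-21 action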
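HeLa cells stably expressing CMV-driven firefly luciferase with a downstream miR-21 binding sequence, endogenously expressing miR-21, were treated with titrations (up to about 40uM final) for 48 hours at 37 degree Celsius. Luciferase luminescence was read after lysis.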
A549 viability: kills or reduces viability of A549 cells in Nrf2 counter-screen; Potency, µM (titrated, usually from 46 µM), actives largely listed as inhibitors; A549 ARE-Fluc cells, CellTiter-Fluor viability, 18-24 h; actives 0.16% (n = 390,000)
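A549 ARE_Fluc cells in 5% FBS OPTI-MEM were exposed to compounds in concentration-response for 18-24 h at 37 deg C. Viability was read by CellTiter-Fluor fluorescence (Ex 405/Em 525) after 30 min, before the luciferase read.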
Mito fusion act: mitochondrial division inhibition or fusion activation; S. cerevisiae fusion-defective mutant growth rescue, CellTiterGlo 48 h; Potency, µM (series often up to 46.1 µM), actives largely listed as activators; actives 0.23% (n = 320,000); AID 485298; further: nearly all actives have a fitted effect of over 45% in size
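Read-out: ATP-based luminescence (CellTiterGlo, 10 min ambient) reporting growth of fusion-defective ts yeast after 48 hours at 37C on glycerol/ethanol YPEG medium in the presence of compound.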
Large screens that a line does not name were inactive. In the library only some 2.3% were active in any assay of this set; here they are far more common. Unless noted, the call rests on the fitted dose curve; in most records, active means well fitted curve in the direction sought with a large enough effect; inconclusive means small, poorly fitted or top-dose-only effect, or another doubt; inactive means no such curve, though single readings can be large; an effect the other way counts as inactive or inconclusive.

C[C@@H]1C[C@H]2[C@@H]3CCC4=CC(=O)C=C[C@]4(C)[C@@]3(F)[C@@H](O)C[C@]2(C)[C@@]1(O)C(=O)COP(=O)(O)O	Nrf2 inh 0.0231µM
CC1(c2ccccc2)O[C@@H]2C[C@H]3[C@@H]4CCC5=CC(=O)C=C[C@]5(C)[C@@]4(F)[C@@H](O)C[C@]3(C)[C@]2(C(=O)CO)O1 (stereo partly specified)	Nrf2 inh 0.0259µM
COc1ccc(NC(=O)C2CCN(c3cc(C)nc4c(-c5ccc(Cl)cc5)c(C)nn34)CC2)cc1	none (no result: Mito fusion act)
CC(C)CC(=O)/C=C/n1c(=S)oc2ccccc21	Nrf2 ARE act 11.2µM
O=C(NCCCc1nc2ccccc2n1Cc1ccc(Cl)cc1Cl)c1ccco1	none (no result: Mito fusion act)
CCCC(=O)NC(=S)Nc1ccc(S(=O)(=O)N2CCc3ccccc32)cc1	Nrf2 inh 20.6µM (no result: miR-21 FLuc, Mito fusion act)
Cc1ccc(N(C)C(=O)c2cc(S(=O)(=O)N3CCc4ccccc43)cn2C)cc1	none
O=C(O)c1ccc(S(=O)(=O)N2CCCc3ccccc32)cc1	none
CCOC(=O)CCC(=O)Nc1ccc(S(=O)(=O)N2CCc3ccccc32)cc1	none
Cc1ccc(C(=O)Nc2ccc(S(=O)(=O)N3CCc4ccccc43)cc2)o1	Nrf2 inh 20.6µM, Mito fusion act inconclusive
NC(=O)c1ccsc1NC(=O)c1ccc(S(=O)(=O)N2CCCc3ccccc32)cc1	Nrf2 inh 18.4µM, A549 viability inconclusive, Mito fusion act inconclusive
COc1ccc(N(C)C(=O)c2cc(S(=O)(=O)N3CCc4ccccc43)cn2C)c(OC)c1	Nrf2 inh 18.4µM, A549 viability inconclusive (no result: Mito fusion act)
CSc1nc(Nc2ccc(C)cc2)c(C#N)c(-c2ccccc2)n1	none (no result: Mito fusion act)
O=S(=O)(NC1CC1)c1ccc(S(=O)(=O)N2CCCc3ccccc32)cc1	Nrf2 inh 23.1µM
COc1ccc(C(=O)Nc2ccc(S(=O)(=O)N3CCc4ccccc43)cc2)cc1	Nrf2 inh 14.6µM (no result: miR-21 FLuc, Mito fusion act)
Cc1ccc(NC(=O)c2cc(S(=O)(=O)N3CCc4ccccc43)cn2C)cc1	Nrf2 inh inconclusive
Cn1cc(S(=O)(=O)N2CCc3ccccc32)cc1C(=O)Nc1ccc(Cl)cc1	Nrf2 inh 8.2µM
O=C(OCC#CCSc1nnc(-c2cccc3ccccc23)o1)C1CCCC1	none (no result: Nrf2 ARE act, miR-21 FLuc, Mito fusion act)
Cc1ccc(NC(=O)c2ccc(N/N=C/c3cccc(O)c3)c([N+](=O)[O-])c2)cc1	Nrf2 inh 18.4µM, A549 viability inconclusive
Cc1ccccc1NC(=O)c1ccc(N/N=C/c2ccccc2O)c([N+](=O)[O-])c1	none
COc1ccc([S+](=O)([O-])N2CCN([S+](=O)([O-])c3ccc4c(c3)OCCO4)CC2)c(OC)c1	none (no result: Nrf2 ARE act, miR-21 FLuc, Mito fusion act)
CNC(=O)[C@H]1O[C@@H](n2cnc3c(NCc4cccc(I)c4)nc(Cl)nc32)[C@H](O)[C@@H]1O	Nrf2 inh 18.4µM (no result: miR-21 FLuc)
O=S(=O)(c1ccc2c(c1)OCCO2)N1CCN(S(=O)(=O)c2c(F)ccc(O)c2F)CC1	none (no result: Nrf2 ARE act, miR-21 FLuc, Mito fusion act)
O=C1c2ccccc2CC1Sc1nnc(-c2ccccn2)o1 (stereo unspecified)	Nrf2 ARE act 12.6µM, Nrf2 inh inconclusive
COc1cccc(C2c3c(ncn(-c4ccccn4)c3=N)Oc3ccc4ccccc4c32)c1 (stereo unspecified)	Nrf2 inh inconclusive (no result: Nrf2 ARE act, miR-21 FLuc, Mito fusion act)
Cc1[nH]c2ccc(C(=O)Nc3ccc(F)cc3)cc2c1C	Nrf2 inh inconclusive (no result: Mito fusion act)
CCOC(=O)c1cc2c(=O)n3ccccc3nc2n(CC2CCCO2)c1=NC(=O)c1ccccc1OCC (stereo unspecified)	none (no result: Mito fusion act)
CC(C)(C)C(=O)C(Cc1ccccc1Cl)n1cncn1 (stereo unspecified)	none
CC(C)(C)C(O)C(Cc1ccccc1Cl)n1cncn1 (stereo unspecified)	Mito fusion act 10µM
CC1=C(C(=O)Nc2ccc(Cl)cc2)C(c2ccccc2)n2ncc(C(=O)Nc3ccccc3)c2N1 (stereo unspecified)	Nrf2 inh 16.4µM, miR-21 FLuc inconclusive (no result: Mito fusion act)
CC1=C(C(=O)Nc2ccc(Cl)cc2)C(c2ccccc2C)n2ncc(C(=O)Nc3ccc(C)cc3)c2N1 (stereo unspecified)	none (no result: Mito fusion act)
COc1cccc(C2=Nn3c(nnc3-c3cc(OC)cc(OC)c3)SC2)c1	Nrf2 inh inconclusive (no result: Nrf2 ARE act, miR-21 FLuc, Mito fusion act)
Cc1ccc(S(=O)(=O)c2nc(NN(C)C)sc2Cl)cc1	Nrf2 inh 23.1µM, Mito fusion act inconclusive
CCOc1ccc(C(=O)Nc2ccc(-c3nc4cc(C(C)C)ccc4o3)cc2)cc1Cl	none (no result: Mito fusion act)
Cc1cccc(C(=O)Nc2ccc(-c3nc4cc(C(C)C)ccc4o3)cc2)c1	Nrf2 inh 14.6µM (no result: Mito fusion act)
COc1cc(OC)cc(C(=O)Nc2ccc(-c3nc4cc(C(C)C)ccc4o3)cc2)c1	Nrf2 inh 14.6µM (no result: Mito fusion act)
COc1cc(C(=O)Nc2ccc(-c3nc4cc(C)ccc4o3)c(O)c2)cc(OC)c1OC	Nrf2 inh 20.6µM
Cc1ccc(C[C@H](C(=O)O)N2C(=O)c3ccc(C(=O)O)cc3C2=O)c(C)c1	none (no result: Nrf2 ARE act, miR-21 FLuc)
O=C(COC(=O)/C=C/c1ccco1)Nc1ccc(F)cc1Cl	Nrf2 ARE act 3.16µM
O=C(COC(=O)/C=C/c1ccco1)Nc1ccccc1	Nrf2 ARE act inconclusive
CCCNC(=O)CN1C(=O)CSc2ccc(S(=O)(=O)N3CCC(C)CC3)cc21	none (no result: Mito fusion act)
Cc1[nH]n(-c2ccccc2)c(=O)c1/C=N\NC(=O)C1COc2ccccc2O1 (stereo unspecified)	Nrf2 inh 16.4µM
CC(=O)N/N=C/c1c(C)[nH]n(-c2ccccc2)c1=O	Nrf2 inh 14.6µM, A549 viability inconclusive
COCC(=O)N/N=C/c1c(C)[nH]n(-c2ccccc2)c1=O	Nrf2 inh 14.6µM, A549 viability inconclusive
COC(=O)N/N=C\c1c(C)[nH]n(-c2ccccc2)c1=O	Nrf2 inh inconclusive, A549 viability inconclusive
NCCCN(Cc1ccc(Cl)c(Cl)c1)c1ccc(Br)cn1	none (no result: Nrf2 ARE act, miR-21 FLuc, Mito fusion act)
COc1ccc(CC2C(=O)NC(C)C(=O)N(C)C3Cc4ccc(cc4)Oc4cc(ccc4O)CC(C(=O)NC(C)C(=O)NC(C)C(=O)N2C)N(C)C3=O)cc1 (stereo unspecified)	Nrf2 inh 1.64µM, A549 viability 2.31µM (no result: miR-21 FLuc, Mito fusion act)
CC[C@H](C)C1OC(=O)[C@@H](C)[C@@H](CC)NC(=O)[C@H](C)N(C)C(=O)C(C)(C)C(=O)C(C)NC(=O)[C@H](Cc2ccc(OC)cc2)N(C)C(=O)[C@H](C(C)C)N(C)C(=O)CNC(=O)[C@H](CC(C)C)N(C)C(=O)CNC1=O (stereo partly specified)	none (no result: Nrf2 inh, miR-21 FLuc, A549 viability, Mito fusion act)
O=C1CSC2(C(=O)N(Cc3cccc(F)c3)c3ccccc32)N1c1cccc(C(F)(F)F)c1 (stereo unspecified)	Nrf2 inh 23.1µM (no result: Mito fusion act)
O=C(CNC(=O)c1ccccc1Cl)OC(C(=O)Nc1cc(C(F)(F)F)ccc1Cl)c1ccccc1 (stereo unspecified)	none (no result: Nrf2 ARE act, miR-21 FLuc, Mito fusion act)
